From ChEMBL document CHEMBL5528032, “Novel Carbonic Anhydrase Inhibitors with Dual-Tail Core Sulfonamide Show Potent and Lasting Effects for Glaucoma Therapy” (J Med Chem, 2024)
Calls of active or inactive are those of the source. The calls are words filed in the database; no cut-off is given here.

Amino acid sequences for entries named in this document (tags omitted). A change or cut given only in a name is not applied to a line headed by its entry.
UniProt P43116: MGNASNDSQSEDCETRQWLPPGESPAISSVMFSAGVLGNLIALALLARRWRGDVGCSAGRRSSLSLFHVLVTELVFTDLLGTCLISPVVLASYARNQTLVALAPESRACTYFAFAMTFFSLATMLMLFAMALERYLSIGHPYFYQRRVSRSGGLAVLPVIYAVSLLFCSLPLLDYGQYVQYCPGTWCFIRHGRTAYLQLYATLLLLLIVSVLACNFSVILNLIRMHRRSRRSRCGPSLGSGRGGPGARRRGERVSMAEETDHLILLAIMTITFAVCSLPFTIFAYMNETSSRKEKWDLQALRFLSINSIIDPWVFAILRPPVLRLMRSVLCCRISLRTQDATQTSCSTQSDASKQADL

Tests used:
[1] = target: Prostaglandin E2 receptor EP2 subtype (Homo sapiens) (UniProt P43116); assay: Agonist activity at human EP2 receptor expressed in HEK293 cells incubated for 7 hrs; format: functional, cell-based
[2] = target: Prostaglandin E2 receptor EP2 subtype (Homo sapiens) (UniProt P43116); assay: Agonist activity at human EP2 receptor expressed in HEK293 cells at 100 uM incubated for 7 hrs relative to control; format: functional, cell-based; conditions: filed as agonist

Row | SMILES | Activity [1] | Activity [2]
1 | NS(=O)(=O)c1ccc(CN(Cc2cccc(OCC(=O)O)c2)S(=O)(=O)c2cccc(C(F)(F)F)c2)cc1 | inactive | –
2 | NS(=O)(=O)c1ccc(CCN(Cc2cccc(NCC(=O)O)c2)S(=O)(=O)c2ccccc2)cc1 | inactive | 40%
3 | NS(=O)(=O)c1ccc(CN(Cc2cccc(NCC(=O)O)c2)S(=O)(=O)c2ccccc2)cc1 | inactive | –
4 | NS(=O)(=O)c1ccc(CN(Cc2cccc(OCC(=O)O)c2)S(=O)(=O)c2ccccc2)cc1 | inactive | 40%
5 | Cc1ccc(S(=O)(=O)N(Cc2ccc(S(N)(=O)=O)cc2)Cc2cccc(NCC(=O)O)c2)cc1 | inactive | –
6 | NS(=O)(=O)c1ccc(CN(Cc2cccc(NCC(=O)O)c2)S(=O)(=O)c2cccc(C(F)(F)F)c2)cc1 | inactive | –
